In article PMC7925596:

B1: mNeonGreen C-terminally fused to the native T3 targeting peptide [M. xanthus] / Myxococcus xanthus encapsulin (T3 encapsulin shell) [M. xanthus] (parent)
chain 1: PLTVGSLRRGG
chain 2: MPDFLGHAENPLREEEWARLNETVIQVARRSLVGRRILDIYGPLGAGVQTVPYDEFQGVSPGAVDIVGEQETAMVFTDARKFKTIPIIYKDFLLHWRDIEAARTHNMPLDVSAAAGAAALCAQQEDELIFYGDARLGYEGLMTANGRLTVPLGDWTSPGGGFQAIVEATRKLNEQGHFGPYAVVLSPRLYSQLHRIYEKTGVLEIETIRQLASDGVYQSNRLRGESGVVVSTGRENMDLAVSMDMVAAYLGASRMNHPFRVLEALLLRIKHPDAICTLEGAGATERR

Variants of: B1
Assay: bulk fluorescence measurement of purified encapsulins loaded with mNeonGreen-TP cargo
Details: parent: 100, read off a plot

| Variant | percent of parent |
| --- | --- |
| chain 1 PLTVGSLRRWG [chain 1 G10W] | 15% |
| chain 1 PLTVGSLRAGG [chain 1 R9A] | 18% |
